By UniProt entry, the sequences of proteins in these tests, tags left out.
UniProt Q99685, whole entry, looked up: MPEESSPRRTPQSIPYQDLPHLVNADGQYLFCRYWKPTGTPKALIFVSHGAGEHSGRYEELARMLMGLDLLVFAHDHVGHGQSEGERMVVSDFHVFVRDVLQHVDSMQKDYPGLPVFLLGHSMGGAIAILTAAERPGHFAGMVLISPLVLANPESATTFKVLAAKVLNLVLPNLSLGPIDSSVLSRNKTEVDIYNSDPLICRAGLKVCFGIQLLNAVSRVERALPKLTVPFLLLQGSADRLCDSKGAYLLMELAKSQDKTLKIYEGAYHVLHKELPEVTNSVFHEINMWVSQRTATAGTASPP
UniProt O08914, whole entry, looked up: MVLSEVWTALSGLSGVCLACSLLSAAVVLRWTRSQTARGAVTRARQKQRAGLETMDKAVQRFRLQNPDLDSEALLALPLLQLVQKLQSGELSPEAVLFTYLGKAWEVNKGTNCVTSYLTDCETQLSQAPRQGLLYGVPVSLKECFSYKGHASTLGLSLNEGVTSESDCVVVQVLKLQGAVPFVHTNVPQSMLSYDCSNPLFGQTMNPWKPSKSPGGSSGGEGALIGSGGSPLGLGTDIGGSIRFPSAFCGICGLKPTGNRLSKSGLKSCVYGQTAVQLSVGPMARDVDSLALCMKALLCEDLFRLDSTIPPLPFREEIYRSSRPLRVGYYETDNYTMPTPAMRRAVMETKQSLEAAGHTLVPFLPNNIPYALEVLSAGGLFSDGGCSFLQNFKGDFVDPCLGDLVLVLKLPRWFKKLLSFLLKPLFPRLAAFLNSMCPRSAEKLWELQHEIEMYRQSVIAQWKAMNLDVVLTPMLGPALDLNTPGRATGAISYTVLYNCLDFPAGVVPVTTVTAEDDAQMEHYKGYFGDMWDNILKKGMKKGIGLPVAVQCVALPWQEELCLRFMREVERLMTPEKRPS
UniProt O35678, whole entry, looked up: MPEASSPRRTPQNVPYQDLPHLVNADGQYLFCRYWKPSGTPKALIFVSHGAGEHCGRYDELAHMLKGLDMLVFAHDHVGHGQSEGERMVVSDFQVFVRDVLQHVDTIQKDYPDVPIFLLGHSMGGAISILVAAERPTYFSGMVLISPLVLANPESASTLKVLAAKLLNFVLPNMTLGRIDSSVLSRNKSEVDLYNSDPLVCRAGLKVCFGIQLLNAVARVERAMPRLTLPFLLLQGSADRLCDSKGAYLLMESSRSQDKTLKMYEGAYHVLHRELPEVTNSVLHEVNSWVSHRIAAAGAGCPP
UniProt O00519, whole entry, looked up: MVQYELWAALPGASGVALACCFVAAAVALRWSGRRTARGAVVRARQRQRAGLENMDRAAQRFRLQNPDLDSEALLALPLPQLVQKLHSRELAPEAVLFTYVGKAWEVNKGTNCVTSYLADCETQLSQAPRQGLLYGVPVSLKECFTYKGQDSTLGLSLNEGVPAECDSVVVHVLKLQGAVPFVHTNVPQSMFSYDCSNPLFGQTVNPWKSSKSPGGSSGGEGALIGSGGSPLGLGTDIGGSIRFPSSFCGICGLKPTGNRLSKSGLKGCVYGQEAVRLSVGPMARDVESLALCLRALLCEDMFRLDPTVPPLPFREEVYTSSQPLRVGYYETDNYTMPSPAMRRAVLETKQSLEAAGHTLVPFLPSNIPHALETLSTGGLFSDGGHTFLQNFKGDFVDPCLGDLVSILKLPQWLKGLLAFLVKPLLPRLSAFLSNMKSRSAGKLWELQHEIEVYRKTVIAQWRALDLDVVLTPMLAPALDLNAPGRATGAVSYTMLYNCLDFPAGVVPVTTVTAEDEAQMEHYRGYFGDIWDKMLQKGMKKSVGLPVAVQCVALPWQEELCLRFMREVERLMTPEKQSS

In US11129827B2 (priority 2017, dated 2021):

Legend:
[1] = biological target: MAGL (Homo sapiens (Human), UniProt Q99685); conditions: human prefrontal cortex or cell membrane fractions; for IC50: read-out: MAGL (human) IC50
[2] = biological target: FAAH (Mus musculus (Mouse), UniProt O08914); test: Mouse brain proteomes from inhibitor treated mice (oral gavage, ABPP analysis); assay type: in vivo; conditions: 5 mg/kg oral gavage, C57Bl/6J mouse brain, 4 h following administration
[3] = biological target: MAGL (Mus musculus (Mouse), UniProt O35678); test: as above; assay type: in vivo; conditions: 5 mg/kg oral gavage, C57Bl/6J mouse brain, 4 h following administration
[4] = biological target: FAAH (Homo sapiens (Human), UniProt O00519); conditions: human prefrontal cortex or cell membrane fractions; for IC50: read-out: FAAH (human) IC50

Compound	MAGL (human) % inh. 1 μM [1]	IC50 [1] [µM]	FAAH (mouse) % inh. 5 mg/kg [2]	MAGL (mouse) % inh. 5 mg/kg [3]	FAAH (human) % inh. 1 μM [4]	IC50 [4] [µM]
CCOc1cc(OC2CCN(C(=O)Oc3cncc(C(N)=O)c3)CC2)ccc1Cl	A (% inhibition is greater than or equal to 75%)	< 0.1	A (% inhibition is greater than or equal to 75%)	A (% inhibition is greater than or equal to 75%)	A (% inhibition is greater than or equal to 75%)	< 0.1
Cc1c(CN2CCN(C(=O)Oc3cncc(F)c3)[C@H](C)C2)cccc1C(F)(F)F	B (% inhibition is greater than or equal to 50% and less than 75%)	0.1 to 1	A (% inhibition is greater than or equal to 75%)	D (% inhibition is greater than or equal to 0% and less than 25%)	A (% inhibition is greater than or equal to 75%)	< 0.1
C[C@@H]1CN(Cc2cc(F)cc(Cl)c2)CCN1C(=O)Oc1cncc(C(N)=O)c1	A (% inhibition is greater than or equal to 75%)	0.1 to 1	A (% inhibition is greater than or equal to 75%)	A (% inhibition is greater than or equal to 75%)	A (% inhibition is greater than or equal to 75%)	< 0.1
CC(C)Oc1cc(CN2CCN(C(=O)Oc3cncc(C(N)=O)c3)CC2)ccc1Cl	A (% inhibition is greater than or equal to 75%)	< 0.1	A (% inhibition is greater than or equal to 75%)	B (% inhibition is greater than or equal to 50% and less than 75%)	A (% inhibition is greater than or equal to 75%)	< 0.1
